US20220402980A1, “CHROMOGRANIN A-DERIVED PEPTIDES AND USES THEREOF” (OSPEDALE SAN RAFFAELE S.R.L., priority 2019, published 2022)

Experiments:
αvβ6 = target: T1, αvβ6 (Homo sapiens, UniProt P06756+P18564); assay: Competitive integrin binding assay (isoDGR/STV-HRP probe), αvβ6-coated plates
T1 construct: recombinant human αvβ6 extracellular domain (R&D Systems); purchased R&D Systems (Minneapolis, Minn.)

αvβ8 = αvβ8 (Homo sapiens, UniProt P06756+P26012); assay: Competitive integrin binding assay (isoDGR/STV-HRP probe), αvβ8-coated plates
αvβ5 = target: T2, αvβ5 (Homo sapiens, UniProt P06756+P18084); assay: Competitive integrin binding assay (isoDGR/STV-HRP probe), αvβ5-coated plates
T2 construct: purchased Immunological Sciences (Rome, Italy)

αvβ3 = target: T3, αvβ3 (Homo sapiens, UniProt P05106+P06756); assay: Competitive integrin binding assay (isoDGR/STV-HRP probe), αvβ3-coated plates
T3 construct: purchased Immunological Sciences (Rome, Italy)

SMILES: CC(C)C[C@H](NC(=O)[C@H](CC(=O)O)NC(=O)CNC(=O)[C@H](CCCNC(=N)N)NC(=O)[C@H](CC(C)C)NC(=O)[C@H](CC(N)=O)NC(=O)[C@@H]1CCCN1C(=O)[C@@H](NC(=O)[C@H](C)NC(=O)[C@@H](N)CC(N)=O)C(C)C)C(=O)N[C@@H](CCC(N)=O)C(=O)N[C@H](C(=O)N[C@@H](CC(C)C)C(=O)N[C@@H](C)C(=O)N[C@@H](CCC(N)=O)C(=O)N[C@@H](CCCCN)C(=O)N[C@H](C(=O)N[C@@H](C)C(=O)N[C@@H](CCCNC(=N)N)C(=O)N[C@H](C(=O)O)[C@@H](C)O)C(C)C)C(C)C [peptide 6]
- Ki (αvβ6): 0.9 ± 0.2 nM
- Ki (αvβ6; read-out: Binding affinity for αvβ6 Ki): 0.9 ± 0.2 nM
- Ki (αvβ6; read-out: Ki αvβ6): 0.9 nM
- Ki (αvβ8): 69 ± 12 nM
- Ki (αvβ5): 15400 ± 2420 nM
- Ki (αvβ3): 26200 ± 7390 nM

Like-named read-outs stand apart in the source and are kept apart here.
